# Ab-95 light chain CDR variants: yeast mating affinities

Values reported by Engelhart et al. 2022, doi:10.1038/s41597-022-01779-4 (FLAb copy).

Target: peptide PDVDLGDISGINAS, taken from heptad repeat 2 (HR2) of SARS-CoV-2 spike.

Parent scFv Ab-95: VH joined to VL by a (GGGGS)3 linker. Changes lie in the light chain CDRs alone.
VH: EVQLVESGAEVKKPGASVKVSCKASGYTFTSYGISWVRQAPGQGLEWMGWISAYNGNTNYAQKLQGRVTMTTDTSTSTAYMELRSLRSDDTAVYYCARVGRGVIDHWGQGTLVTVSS
VL: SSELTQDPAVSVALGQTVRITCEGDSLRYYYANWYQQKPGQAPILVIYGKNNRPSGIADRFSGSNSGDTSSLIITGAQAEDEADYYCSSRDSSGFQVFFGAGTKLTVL

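Phage display of a naive human antibody library on the peptide gave the parent. The library (AAYL52) carries one to three amino acid substitutions per variant, with no insertions or deletions. In AlphaSeq, yeast of one mating type display the scFv and yeast of the other type display the target. Mating (16 h, 30 °C) was followed by selection of diploids and sequencing of their barcodes. A regression on co-assayed BCL2-family reference pairs converts the normalised counts of each replicate to an apparent Kd. There are three technical replicates.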

Each variant is given by its three light chain CDRs, as the data file delimits them; those of the parent are EGDSLRYYYAN, GKNNRPS, SSRDSSGFQVF. All variants listed here change N52 of the VL, counted from its first residue. The Kd shown is the geometric mean over detected replicates; a lower Kd is a better binder. An entry "not detected" has no value in the source: the pair was not observed among the diploids in any replicate. This suggests poor binding but is not conclusive. As a blank, each scFv also met three strains without target: over library AAYL52, 28% of these pairings were detected, typically at 8.2 µM and seldom below 800 nM.

| CDR-L1 | CDR-L2 | CDR-L3 | Kd | detected |
|---|---|---|---|---|
| KGDSLRYYYAN | GKNFDPS | SSRDSSGFQVF | 110 µM | 2 of 3 |
| EGDSLRYYYAN | YKNCRPS | SSRDSSGFQSF | 58 µM | 1 of 3 |
| EGDSLRYYYAN | GKRQRPS | SSRDSSGFQVF | 1.5 µM | 2 of 3 |
| EGDSLRYYYAN | GKNMRDS | SSRDSSGVQVF | 9.7 µM | 2 of 3 |
| EGDSLRYYYAN | GKNLRPS | VSRDSSGHQVF | 420 nM | 3 of 3 |
| EGDSLRYYYAN | GKGARPS | SSRDSIGFQVF | 2.8 µM | 3 of 3 |
| EEDSLRYYVAN | GKNERPS | SSRDSSGFQVF | not detected | 0 of 3 |
| EGDSLRYYYAN | GKNFRPS | SSEDASGFQVF | 1.0 µM | 1 of 3 |
| EGDSLRYYYAN | GKPHRPS | SSRDSPGFQVF | not detected | 0 of 3 |
| EGDSLRYYYAN | GKNIRPS | SSRDSSGRQVF | 430 nM | 3 of 3 |
| EGDSLRYYYAL | GKNFCPS | SSRDSSGFQVF | 15 µM | 3 of 3 |
| EGDSLRYYYAN | GKNLRPS | SHRPSSGFQVF | 370 nM | 3 of 3 |
| EGDSLRLYYAN | HKNCRPS | SSRDSSGFQVF | 25 µM | 3 of 3 |
| EPDSLRYYYAN | GKNPRPS | SSRDSSGNQVF | not detected | 0 of 3 |
| EGDSLRYYYAN | GKPHMPS | SSRDSSGFQVF | 3.8 µM | 2 of 3 |
| EGDSRRYYYAN | GQNTRPS | SSRDSSGFQVF | 19 µM | 1 of 3 |
| EGDSARYYYAN | GKNRRPS | SNRDSSGFQVF | not detected | 0 of 3 |
| EGDSLRYYYAN | GKNVRPS | SSRCSSGFQVF | 920 nM | 3 of 3 |
| EGDSLRYYYQN | GKNRRPN | SSRDSSGFQVF | 550 nM | 3 of 3 |
| EGDSLRYYYAN | GKNYRPS | SSEYSSGFQVF | not detected | 0 of 3 |
| DGDSLRYYYAN | GKNHRPS | SNRDSSGFQVF | 4.8 µM | 2 of 3 |
| EGESLRYYYAN | GNNLRPS | SSRDSSGFQVF | 52 nM | 3 of 3 |
| EGDSLRYYYAS | GKNMRPS | SSRDSSGFGVF | 7.1 µM | 1 of 3 |
| YGDSLRYYYAN | GKNYRPS | SSRDHSGFQVF | 2.3 µM | 3 of 3 |
| EGDSLRYYYAN | GKNQRPS | SSRDSSNFQVI | 670 nM | 3 of 3 |
| EGGSLRYYYAN | GKNHRPL | SSRDSSGFQVF | 1.6 µM | 3 of 3 |
| EGDSLRYYYAK | GKNMRPM | SSRDSSGFQVF | 4.0 µM | 1 of 3 |
| EGDSLRYYYAN | GKPHRLS | SSRDSSGFQVF | 23 µM | 2 of 3 |
| EGDSLRYIYAN | GKNPRPS | SSRDSSGFVVF | not detected | 0 of 3 |
| EGDSLRYYYAN | GKNARPS | SYRASSGFQVF | 630 nM | 3 of 3 |
| EGDSLRYYYAN | GKNVHPS | SSRDSSGFQVT | 1.7 µM | 3 of 3 |
| EGDSLRYYYAN | GKNCQPS | SSRFSSGFQVF | 120 µM | 2 of 3 |
| EGDSLRYYYAN | GKNTIFS | SSRDSSGFQVF | 45 µM | 3 of 3 |
| EGDSLSYYYAN | GKNHRPS | SSRDSSKFQVF | not detected | 0 of 3 |
| EGDSLRKYYAN | GKNDRPS | SSRDSSGFQVR | 200 nM | 3 of 3 |
| EGDSLRYYYAS | GKSPRPS | SSRDSSGFQVF | not detected | 0 of 3 |
| EGDSLRYYYAN | RKNKRPS | SNRDSSGFQVF | 12 µM | 2 of 3 |
| EGDSLRYYRAN | GKNFTPS | SSRDSSGFQVF | 390 nM | 3 of 3 |
| EGDSLRYYYAN | HKNKRPS | SSRDSSGGQVF | 9.1 µM | 1 of 3 |
| ESDSLRYYYAN | GKNDRPS | VSRDSSGFQVF | 370 nM | 3 of 3 |
| EGWSLRYYYAN | GKNGRPS | SERDSSGFQVF | 5.8 µM | 1 of 3 |
| EGDSLRYYYAN | GDCERPS | SSRDSSGFQVF | 550 nM | 3 of 3 |
| EGDSLRYYYNN | GHNRRPS | SSRDSSGFQVF | 7.2 µM | 3 of 3 |
| EGDSLRYYYIN | GKNARPS | SSRDSSGFQKF | 25 µM | 2 of 3 |
| EGDSLRYYYAN | GKNARPS | SSRDVSGFNVF | 380 nM | 3 of 3 |
| EGRSLRYFYAN | GKNCRPS | SSRDSSGFQVF | 57 µM | 1 of 3 |
| EYDSLRHYYAN | GKNERPS | SSRDSSGFQVF | 220 nM | 3 of 3 |
| EGDSLRYYYAN | GKNCRPS | SSRDSSGFQVF | not detected | 0 of 3 |
| EGDSLRYYYAN | GKNVRPP | SSRDSSGFQVF | 1.2 µM | 3 of 3 |
| EGDSLRYFYAN | GKNERPS | SSRDSTGFQVF | 80 nM | 3 of 3 |
| EGDSLRYYYAN | GINPRPL | SSRDSSGFQVF | 9.1 µM | 2 of 3 |
| EGDSLRYYYAN | GKNRRPS | SSRDSSGFQVG | 18 µM | 1 of 3 |
| EGDSLRYYYIN | GKNGRPS | DSRDSSGFQVF | 18 µM | 1 of 3 |
| EGDSLRYYYTN | GKNSRPS | SSKDSSGFQVF | 900 nM | 3 of 3 |
| EGDSLRYYYMN | GKNPRPS | SSRDSSGFQVG | 1.6 µM | 1 of 3 |
| EGDSLRLYYAN | GKLPRPS | SSRDSSGFQVF | 1.7 µM | 1 of 3 |
| EGDSLRYYYAN | GKNYRQS | SSRDSSGFDVF | 220 nM | 3 of 3 |
| EGDSLRYYYAN | GKNQHPS | SSRDYSGFQVF | 3.0 µM | 3 of 3 |
| EGDSLRYYYAN | FKNERPS | SSADSSGFQVF | not detected | 0 of 3 |
| EGDSLRYYYAN | GMNYRFS | SSRDSSGFQVF | 5.4 µM | 2 of 3 |
| IGDSLRYYYAN | GKNLRPS | SSRDKSGFQVF | 320 nM | 3 of 3 |
| EGDSLRYYYAN | FKNDRPS | SSRDSSDFQVF | not detected | 0 of 3 |
| EGDSLRYYYAN | GKVLRPS | SSRDSGGFQVF | 1.5 µM | 2 of 3 |
| EGDSLRYYYAN | GKNFYPS | TSRDSSGFQVF | 180 µM | 1 of 3 |
| EGDSLRYYYAN | GKNQRPS | SSRDSSGFHVF | 52 nM | 3 of 3 |
| EGDCLRYYQAN | GKNARPS | SSRDSSGFQVF | 920 nM | 3 of 3 |
| EGDSLRYYYAN | GKNERPS | SSRDSSGFQVF | 16 nM | 3 of 3 |
| SGDSLRYYYAN | GKNQRPS | SSRDSSGFNVF | 28 nM | 3 of 3 |
| SGDSLRYYYAA | GKNDRPS | SSRDSSGFQVF | 970 nM | 2 of 3 |
| EGDSLRYYYRN | GKNMRPS | SSDDSSGFQVF | 29 µM | 3 of 3 |
| EGDSLHYYYAN | GKNCRPS | SSRKSSGFQVF | 3.5 µM | 1 of 3 |
| EGDSLRYYWAN | GKNTRPS | SSRDSSGFQYF | 3.2 µM | 3 of 3 |
| EGDSLRYYYAN | GKNDRPS | QSRDSSGFQQF | not detected | 0 of 3 |
| EGDSLRYYYAN | GKNYRPQ | SSRDSSGFQVK | 5.4 µM | 2 of 3 |

Extract of 5 entries:

CDR-L1,CDR-L2,CDR-L3,Kd,detected
EGWSLRYYYAN,GKNGRPS,SERDSSGFQVF,5.8 µM,1 of 3
EGDSLRYYYAN,GKNQRPS,SSRDSSNFQVI,670 nM,3 of 3
EGDSLRYYYTN,GKNSRPS,SSKDSSGFQVF,900 nM,3 of 3
EGDSLRYYYIN,GKNGRPS,DSRDSSGFQVF,18 µM,1 of 3
EGDSLRYYYAN,GKNVRPS,SSRCSSGFQVF,920 nM,3 of 3